ChEMBL document CHEMBL5236635, “Structure-Based Drug Design and Synthesis of Novel N-Aryl-2,4-bithiazole-2-amine CYP1B1-Selective Inhibitors in Overcoming Taxol Resistance in A549 Cells” (J Med Chem, 2022)

Experiments:
[1] = molecular target: T1, Cytochrome P450 1A1 (Homo sapiens, UniProt P04798); assay: Inhibition of recombinant human CYP1A1 using 7-ethyl-0-resorufin as substrate incubated for 30 mins in presence of NADPH by EROD assay
T1 sequence (P04798 whole entry): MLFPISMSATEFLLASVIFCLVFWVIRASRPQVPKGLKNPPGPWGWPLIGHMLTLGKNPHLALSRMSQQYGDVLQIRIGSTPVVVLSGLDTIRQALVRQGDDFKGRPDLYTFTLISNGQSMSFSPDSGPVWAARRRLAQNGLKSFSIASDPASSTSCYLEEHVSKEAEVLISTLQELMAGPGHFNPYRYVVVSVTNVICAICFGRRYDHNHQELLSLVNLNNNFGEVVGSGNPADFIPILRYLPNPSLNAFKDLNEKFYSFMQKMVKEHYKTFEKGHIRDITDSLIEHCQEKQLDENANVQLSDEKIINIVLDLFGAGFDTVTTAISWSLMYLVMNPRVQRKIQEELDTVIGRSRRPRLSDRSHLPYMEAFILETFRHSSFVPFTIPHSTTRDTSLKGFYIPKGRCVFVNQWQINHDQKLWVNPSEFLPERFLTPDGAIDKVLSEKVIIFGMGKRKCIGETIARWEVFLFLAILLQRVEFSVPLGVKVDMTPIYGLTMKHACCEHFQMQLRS

[2] = molecular target: T2, Cytochrome P450 1B1 (Homo sapiens, UniProt Q16678); assay: Inhibition of recombinant human CYP1B1 using 7-ethyl-0-resorufin as substrate incubated for 30 mins in presence of NADPH by EROD assay
T2 sequence (Q16678 whole entry): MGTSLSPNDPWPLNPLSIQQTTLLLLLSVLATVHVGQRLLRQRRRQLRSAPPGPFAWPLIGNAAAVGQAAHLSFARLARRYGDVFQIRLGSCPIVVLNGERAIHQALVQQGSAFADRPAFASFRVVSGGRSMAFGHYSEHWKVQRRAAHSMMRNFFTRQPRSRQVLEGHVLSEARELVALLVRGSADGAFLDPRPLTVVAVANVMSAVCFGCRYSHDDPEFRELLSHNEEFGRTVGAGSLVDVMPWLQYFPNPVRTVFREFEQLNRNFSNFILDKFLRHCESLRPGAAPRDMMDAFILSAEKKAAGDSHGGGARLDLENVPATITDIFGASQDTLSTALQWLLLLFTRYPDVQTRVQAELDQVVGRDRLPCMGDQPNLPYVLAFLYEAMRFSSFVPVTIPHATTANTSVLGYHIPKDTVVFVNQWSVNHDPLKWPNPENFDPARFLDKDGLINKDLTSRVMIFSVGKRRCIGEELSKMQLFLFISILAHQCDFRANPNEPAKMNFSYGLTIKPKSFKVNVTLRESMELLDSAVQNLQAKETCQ

- IC50 [1]: 209 nM
- IC50 [2]: 8.23 nM
Structure (SMILES): COc1cc(/C=C/c2ccc(OC)cc2OC)cc(OC)c1
